{"source": "paper PMC10354055", "about": "“An optimized Nurr1 agonist provides disease-modifying effects in Parkinson’s disease models” (Nature Communications, 2023)", "system": "MPTP-induced male mice", "assay": "Rotarod, sub-chronic MPTP-induced PD model mice", "type": "in vivo, mouse", "conditions": "Figure 4b, individual animal values", "description": "MPTP (Sigma-Aldrich) was intraperitoneally (i.p.) injected (30 mg/kg) for 5 days (Day 1-5). […] To test dyskinetic involuntary behavior, an L-DOPA injected group was included, which received 50 mg/kg of L-DOPA and 15 mg/kg of benserazide (Sigma-Aldrich) (i.p.) for 16 days (Day 1–16). All compounds were administered 6 h post-MPTP injection to avoid any effect of compounds on the MPTP metabolism in the brain. Motor and non-motor related behavior tests were performed on the following days as described in Fig. 4a in an assessor- and observer-blinded fashion. Pre-training and baseline setup for motor-related behaviors were performed 3 days prior to the injections. Mice were sacrificed and subjected to immunohistochemistry. Mice were housed at the Animal Care Facilities of McLean Hospital under a 12-h light/12-h dark cycle, ambient temperature and humidity. Animals were handled in accordance with McLean Hospital’s Institutional Animal Care and Use Committee (Protocol #: 2015N000002) and followed National Institutes of Health guidelines.\nMice were pre-trained on an automated 5-lane rotarod unit (10 rpm, 3 min) for 2 days and the baseline was measured (10 rpm, 90 sec) before the rotarod test (3 days before the MPTP injection or the first rotarod test at week 2). […] Time on the rotating rod was measured automatically by placing a trip switch under the floor beneath the rotating drum.", "note": "Several values for one entry are separate records, joined by “and”; a condition that tells them apart may be missing. Equal values may be shown once."}
{"smiles": "CCN(CC)CCCC(C)Nc1ccnc2cc(Cl)ccc12", "note": "(stereo not shown) [CQ, chloroquine]", "values": [{"measurement": "Latency to fall", "value": "112.77 s and 112.27 s"}]}
